Experimental findings from ChEMBL document CHEMBL3751845, “Synthesis, molecular docking and biological evaluation of N,N-disubstituted 2-aminothiazolines as a new class of butyrylcholinesterase and carboxylesterase inhibitors” (Bioorg Med Chem, 2016) are described below.

A short description of this data set: Cytotoxicity against human fetal MSC assessed as reduction in cell viability at <30 uM after 72 hrs by MTT assay. In general terms: Tetrazolium dyes change colour on reduction, which living cells bring about.

In the case of `I.ICC1CN=C(Nc2ccccn2)S1` (stereo unspecified), the Activity result is “Non-toxic”.
